Reference: patent publication US6191144A, “Method of using angiotensin converting enzyme inhibitor to stimulate angiogenesis” (priority 1999, dated 2001)

Assay: Body weight (Table 1)

VEGF
Body Weight (Day 10): 4.08 ± 0.06 kg
Body Weight (Day 40): 4.01 ± 0.08 kg
